# Values of other authors in patent US11466029B2, “Compounds useful to treat influenza virus infections” (Nanjing Zhengxiang Pharmaceuticals Co., Ltd., priority 2019, dated 2022).
# How the values were obtained:
# [1] = rat, in vivo; cited from earlier work
# [2] = monkey, in vivo; cited from earlier work
smiles,measurement,setting,value
COC(=O)OCOc1c2n(ccc1=O)N([C@@H]1c3ccccc3SCc3c1ccc(F)c3F)[C@@H]1COCCN1C2=O [baloxavir marboxil],oral bioavailability of baloxavir,[1],9.8-14.7%
same,effect of feeding conditions on oral bioavailability of baloxavir,[2],largely affected by feeding conditions
